pIC50: −log10 of the molar value.
Target: T1, Chemoattractant receptor-homologous molecule expressed on Th2 cells (Cavia porcellus, UniProt Q56D28)
T1 sequence (Q56D28 whole entry): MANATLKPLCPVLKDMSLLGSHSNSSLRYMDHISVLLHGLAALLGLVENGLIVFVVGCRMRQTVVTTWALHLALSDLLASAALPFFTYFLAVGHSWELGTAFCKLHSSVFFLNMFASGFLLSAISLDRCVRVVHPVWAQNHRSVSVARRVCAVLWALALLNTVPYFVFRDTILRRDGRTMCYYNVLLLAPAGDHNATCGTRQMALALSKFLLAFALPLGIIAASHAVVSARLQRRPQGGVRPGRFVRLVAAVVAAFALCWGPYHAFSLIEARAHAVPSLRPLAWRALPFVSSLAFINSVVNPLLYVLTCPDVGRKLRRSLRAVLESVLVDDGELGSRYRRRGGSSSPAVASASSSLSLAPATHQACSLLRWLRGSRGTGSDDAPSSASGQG
Assay: Displacement of [3H]-PGD2 from guinea pig CRTH2 receptor expressed in HEK293 cells
Assay type: cell-based

## CCCCNC(=O)c1ccc(Oc2ccc(CC(=O)O)cc2OC)c(NS(=O)(=O)c2ccc(Cl)cc2Cl)c1
  pIC50: 8.52

Reference: ChEMBL document CHEMBL1156086, “Discovery and optimization of CRTH2 and DP dual antagonists” (Bioorg Med Chem Lett, 2009)
